Measured values: US20070270455A1, “INHIBITION OF NF-kB” (priority 2005, published 2007)

Tested on: RCC45
Experiment: Global gene expression profile by microarray hybridization, RCC45
Format: cell-based
Conditions: 16 hours

Nc1c2ccccc2nc2ccccc12 [9AA, 9-aminoacridine]
Relative expression compared to untreated cells: Activating transcription factor 3 (9AA 2 μM): 0.91 | Relative expression compared to untreated cells: Amyloid beta (A4) precursor-like protein 2 (9AA 2 μM): 0.97 | Relative expression compared to untreated cells: Annexin A1 (9AA 2 μM): 1.13 | Relative expression compared to untreated cells: Apoptotic protease activating factor (9AA 2 μM): 0.85 | Relative expression compared to untreated cells: BCL2 binding component 3 (PUMA) (9AA 2 μM): 0.78 | Relative expression compared to untreated cells: BTG family member 2 (9AA 2 μM): 0.9 | Relative expression compared to untreated cells: CD44 antigen (homing function and Indian blood group system) (9AA 2 μM): 1.32 | Relative expression compared to untreated cells: Carboxylesterase 2 (intestine, liver) (9AA 2 μM): 1.04 | Relative expression compared to untreated cells: Chemokine (C-C motif) ligand 2 (9AA 2 μM): 1.06 | Relative expression compared to untreated cells: Chemokine (C-C motif) ligand 20 (9AA 2 μM): 1.06 | Relative expression compared to untreated cells: Chemokine (C-X-C motif) ligand 1 (melanoma growth stimulating activity, alpha) (9AA 2 μM): 0.93 | Relative expression compared to untreated cells: Chemokine (C-X-C motif) ligand 6 (granulocyte chemotactic protein 2) (9AA 2 μM): 0.94 | Relative expression compared to untreated cells: Chemokine-like factor super family 3 (9AA 2 μM): 0.85 | Relative expression compared to untreated cells: Cyclin D1 (PRAD1: parathyroid adenomatosis 1) (9AA 2 μM): 1.34 | Relative expression compared to untreated cells: Cyclin-dependent kinase inhibitor 1A (p21, Cip1) (9AA 2 μM): 1.33 | Relative expression compared to untreated cells: Damage-specific DNA binding protein 2, 48 kDa (9AA 2 μM): 1.00 | Relative expression compared to untreated cells: Growth arrest and DNA-damage-inducible, beta (9AA 2 μM): 0.92 | Relative expression compared to untreated cells: Heat shock 27 kDa protein 1 (9AA 2 μM): 1.13 | Relative expression compared to untreated cells: Interleukin 8 (9AA 2 μM): 1.37 | Relative expression compared to untreated cells: KILLER/DR5 (9AA 2 μM): 1.1 | Relative expression compared to untreated cells: Leucine-rich repeats and death domain containing (9AA 2 μM): 1.10 | Relative expression compared to untreated cells: Mdm2, transformed 3T3 cell double minute 2, p53 binding protein (mouse) (9AA 2 μM): 0.91 | Relative expression compared to untreated cells: Nuclear factor of kappa light polypeptide gene enhancer in B-cells inhibitor, alpha (9AA 2 μM): 0.96 | Relative expression compared to untreated cells: Ribonucleotide reductase M2 B (TP53 inducible) (9AA 2 μM): 1.08 | Relative expression compared to untreated cells: Tenascin C (hexabrachion) (9AA 2 μM): 1.37 | Relative expression compared to untreated cells: Thiosulfate sulfurtransferase (rhodanese) (9AA 2 μM): 1.13 | Relative expression compared to untreated cells: Tumor necrosis factor receptor superfamily, member 9 (9AA 2 μM): 0.65 | Relative expression compared to untreated cells: Tumor necrosis factor, alpha-induced protein 6 (9AA 2 μM): 0.73 | Relative expression compared to untreated cells: Tumor protein p53 inducible nuclear protein 1 (9AA 2 μM): 1.09 | Relative expression compared to untreated cells: V-myc myelocytomatosis viral oncogene homolog (avian) (9AA 2 μM): 0.88 | Relative expression compared to untreated cells: Vascular cell adhesion molecule 1 (9AA 2 μM): 1.18 | Relative expression compared to untreated cells: Activating transcription factor 3 (9AA 10 μM): 2.99 | Relative expression compared to untreated cells: Amyloid beta (A4) precursor-like protein 2 (9AA 10 μM): 1.90 | Relative expression compared to untreated cells: Annexin A1 (9AA 10 μM): 2.02 | Relative expression compared to untreated cells: Apoptotic protease activating factor (9AA 10 μM): 1.72 | Relative expression compared to untreated cells: BCL2 binding component 3 (PUMA) (9AA 10 μM): 1.79 | Relative expression compared to untreated cells: BTG family member 2 (9AA 10 μM): 2.4 | Relative expression compared to untreated cells: CD44 antigen (homing function and Indian blood group system) (9AA 10 μM): 0.41 | Relative expression compared to untreated cells: Carboxylesterase 2 (intestine, liver) (9AA 10 μM): 3.17 | Relative expression compared to untreated cells: Chemokine (C-C motif) ligand 2 (9AA 10 μM): 0.35 | Relative expression compared to untreated cells: Chemokine (C-C motif) ligand 20 (9AA 10 μM): 0.35 | Relative expression compared to untreated cells: Chemokine (C-X-C motif) ligand 1 (melanoma growth stimulating activity, alpha) (9AA 10 μM): 0.15 | Relative expression compared to untreated cells: Chemokine (C-X-C motif) ligand 6 (granulocyte chemotactic protein 2) (9AA 10 μM): 0.22 | Relative expression compared to untreated cells: Chemokine-like factor super family 3 (9AA 10 μM): 0.59 | Relative expression compared to untreated cells: Cyclin D1 (PRAD1: parathyroid adenomatosis 1) (9AA 10 μM): 0.69 | Relative expression compared to untreated cells: Cyclin-dependent kinase inhibitor 1A (p21, Cip1) (9AA 10 μM): 4.62 | Relative expression compared to untreated cells: Damage-specific DNA binding protein 2, 48 kDa (9AA 10 μM): 1.79 | Relative expression compared to untreated cells: Growth arrest and DNA-damage-inducible, beta (9AA 10 μM): 2.66 | Relative expression compared to untreated cells: Heat shock 27 kDa protein 1 (9AA 10 μM): 1.71 | Relative expression compared to untreated cells: Interleukin 8 (9AA 10 μM): 0.30 | Relative expression compared to untreated cells: KILLER/DR5 (9AA 10 μM): 2.4 | Relative expression compared to untreated cells: Leucine-rich repeats and death domain containing (9AA 10 μM): 1.64 | Relative expression compared to untreated cells: Mdm2, transformed 3T3 cell double minute 2, p53 binding protein (mouse) (9AA 10 μM): 2.30 | Relative expression compared to untreated cells: Nuclear factor of kappa light polypeptide gene enhancer in B-cells inhibitor, alpha (9AA 10 μM): 0.55 | Relative expression compared to untreated cells: Ribonucleotide reductase M2 B (TP53 inducible) (9AA 10 μM): 3.33 | Relative expression compared to untreated cells: Tenascin C (hexabrachion) (9AA 10 μM): 0.58 | Relative expression compared to untreated cells: Thiosulfate sulfurtransferase (rhodanese) (9AA 10 μM): 2.79 | Relative expression compared to untreated cells: Tumor necrosis factor receptor superfamily, member 9 (9AA 10 μM): 0.91 | Relative expression compared to untreated cells: Tumor necrosis factor, alpha-induced protein 6 (9AA 10 μM): 0.27 | Relative expression compared to untreated cells: Tumor protein p53 inducible nuclear protein 1 (9AA 10 μM): 1.86 | Relative expression compared to untreated cells: V-myc myelocytomatosis viral oncogene homolog (avian) (9AA 10 μM): 0.48 | Relative expression compared to untreated cells: Vascular cell adhesion molecule 1 (9AA 10 μM): 0.51
